Measured values from patent US20250368649A1, “TETRAHYDROPYRIDOPYRIMIDINE PAN-KRAS INHIBITORS” (Mirati Therapeutics, Inc., priority 2022, published 2025).

Amino acid sequences for entries named in this document (tags omitted). A change or cut given only in a name is not applied to a line headed by its entry.
UniProt P01116: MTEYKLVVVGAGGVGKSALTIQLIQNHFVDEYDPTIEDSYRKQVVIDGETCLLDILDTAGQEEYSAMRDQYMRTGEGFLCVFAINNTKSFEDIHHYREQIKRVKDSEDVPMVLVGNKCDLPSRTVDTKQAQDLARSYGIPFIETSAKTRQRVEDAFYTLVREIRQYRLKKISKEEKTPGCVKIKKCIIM

Columns and labels:
Assay in all cases: biochemical
KRas G12D = KRas G12D (Homo sapiens, UniProt P01116, G12D); conditions: Binding to KRas (IC50 nM) G12D, TR-FRET displacement
KRas G12R = KRas G12R (Homo sapiens, UniProt P01116, G12R); conditions: Binding to KRas (IC50 nM) G12R, TR-FRET displacement
KRas G12V = KRas G12V (Homo sapiens, UniProt P01116, G12V); conditions: Binding to KRas (IC50 nM) G12V, TR-FRET displacement

Row | Compound | IC50 (KRas G12D) | IC50 (KRas G12R) | IC50 (KRas G12V)
1 | CCc1cccc2cccc(N3CCc4c(nc(OCC5(CN(C)C)CC5)nc4NCC(O)Cn4cccn4)C3)c12 (stereo not drawn) [Example 526, 1-((2-((1-((dimethylamino)methyl)cyclopropyl)methoxy)-7-(8-ethylnaphthalen-1-yl)-5,6,7,8-tetrahydropyrido[3,4-d]pyrimidin-4-yl)amino)-3-(1H-pyrazol-1-yl)propan-2-ol] | 5830 nM | 9170 nM | 5810 nM
2 | CCc1cccc2cccc(N3CCc4c(nc(OCC56CCCN5CCC6)nc4C(=O)NC)C3)c12 [Example 591, 7-(8-ethylnaphthalen-1-yl)-N-methyl-2-((tetrahydro-1H-pyrrolizin-7a(5H)-yl)methoxy)-5,6,7,8-tetrahydropyrido[3,4-d]pyrimidine-4-carboxamide] | 37700 nM | > 100000 nM | 37600 nM
3 | CC1(O)CCCN(c2nc(OCC34CCCN3CCC4)nc3c2CCN(c2ccc(F)c4sc(N)nc24)C3)C1 (stereo not drawn) [Example 625, 1-(7-(2-amino-7-fluorobenzo[d]thiazol-4-yl)-2-((tetrahydro-1H-pyrrolizin-7a(5H)-yl)methoxy)-5,6,7,8-tetrahydropyrido[3,4-d]pyrimidin-4-yl)-3-methylpiperidin-3-ol] | 12200 nM | 25900 nM | 12800 nM
4 | Nc1nc2c(N3CCc4c(nc(OCC56CCCN5CCC6)nc4N4CCCC5(C4)NC(=O)NC5=O)C3)ccc(F)c2s1 (stereo not drawn) [Example 626, 7-(7-(2-amino-7-fluorobenzo[d]thiazol-4-yl)-2-((tetrahydro-1H-pyrrolizin-7a(5H)-yl)methoxy)-5,6,7,8-tetrahydropyrido[3,4-d]pyrimidin-4-yl)-1,3,7-triazaspiro[4.5]decane-2,4-dione] | 6470 nM | 2300 nM | 3030 nM
5 | Cc1cc2[nH]nnc2c(N2CCc3c(nc(OCC45CCCN4CCC5)nc3N3CCOC[C@@](C)(O)C3)C2)c1C [Example 638, (S)-4-(7-(5,6-dimethyl-1H-benzo[d][1,2,3]triazol-4-yl)-2-((tetrahydro-1H-pyrrolizin-7a(5H)-yl)methoxy)-5,6,7,8-tetrahydropyrido[3,4-d]pyrimidin-4-yl)-6-methyl-1,4-oxazepan-6-ol] | 2950 nM | 10800 nM | 5120 nM
6 | Cc1cc2[nH]nnc2c(N2CCc3c(nc(OCC45CCCN4CCC5)nc3N3C[C@@H]4C[C@H](C3)[C@H](O)C4)C2)c1C [Example 640, (1R,5R,6R)-3-(7-(5,6-dimethyl-1H-benzo[d][1,2,3]triazol-4-yl)-2-((tetrahydro-11H-pyrrolizin-7a(5H)-yl)methoxy)-5,6,7,8-tetrahydropyrido[3,4-d]pyrimidin-4-yl)-3-azabicyclo[3.2.1]octan-6-ol] | 50000 nM | 15500 nM | 17900 nM
7 | CCc1c(F)ccc2cc(O)cc(N3CCc4c(nc(OCC5(CN(C)C)CC5)nc4N4CCCN(C(=O)Cc5ccccn5)CC4)C3)c12 [Example 647, 1-(4-(2-((1-((dimethylamino)methyl)cyclopropyl)methoxy)-7-(8-ethyl-7-fluoro-3-hydroxynaphthalen-1-yl)-5,6,7,8-tetrahydropyrido[3,4-d]pyrimidin-4-yl)-1,4-diazepan-1-yl)-2-(pyridin-2-yl)ethan-1-one] | 5570 nM | 392 nM | 1140 nM
8 | CCc1c(F)ccc2cc(O)cc(N3CCc4c(nc(OC[C@@]56CCCN5C[C@H](F)C6)nc4N4CCCN(C(=O)Cc5ccccn5)CC4)C3)c12 [Example 650, 1-(4-(7-(8-ethyl-7-fluoro-3-hydroxynaphthalen-1-yl)-2-(((2R,7aS)-2-fluorotetrahydro-1H-pyrrolizin-7a(5H)-yl)methoxy)-5,6,7,8-tetrahydropyrido[3,4-d]pyrimidin-4-yl)-1,4-diazepan-1-yl)-2-(pyridin-2-yl)ethan-1-one] | 3440 nM | 528 nM | 718 nM
9 | CCc1c(F)ccc2cc(O)cc(N3CCc4c(nc(OC[C@@]56CCCN5C[C@H](F)C6)nc4N4C[C@H]5CC[C@@H](C4)[C@H]5C#N)C3)c12 [Example 652, (1R,5S,8R)-3-(7-(8-ethyl-7-fluoro-3-hydroxynaphthalen-1-yl)-2-(((2R,7aS)-2-fluorotetrahydro-1H-pyrrolizin-7a(5H)-yl)methoxy)-5,6,7,8-tetrahydropyrido[3,4-d]pyrimidin-4-yl)-3-azabicyclo[3.2.1]octane-8-carbonitrile] | 3120 nM | 1410 nM | 1240 nM

These reach a lower IC50 (KRas G12D). Values come first.

Row | IC50 (KRas G12D) | IC50 (KRas G12R) | IC50 (KRas G12V) | Compound
10 | 39 nM | 158 nM | 47 nM | CCSc1ccc2cc(O)cc(N3CCc4c(nc(OC[C@@]56CCCN5C[C@H](F)C6)nc4N4CCCC5(CNS(=O)(=O)N5)C4)C3)c2c1F (stereo partly drawn) [Example 510, 7-(7-(7-(ethylthio)-8-fluoro-3-hydroxynaphthalen-1-yl)-2-(((2R,7aS)-2-fluorohexahydro-1H-pyrrolizin-7a-yl)methoxy)-5,6,7,8-tetrahydropyrido[3,4-d]pyrimidin-4-yl)-2-thia-1,3,7-triazaspiro[4.5]decane 2,2-dioxide]
11 | 13 nM | 47 nM | 15 nM | Cc1cc2[nH]ncc2c(N2CCc3c(nc(OCC4(CN(C)C)CC4)nc3N3CCCC4(CNS(=O)(=O)N4)C3)C2)c1C (stereo not drawn) [Example 511, 7-(7-(5,6-dimethyl-1H-indazol-4-yl)-2-((1-((dimethylamino)methyl)cyclopropyl)methoxy)-5,6,7,8-tetrahydropyrido[3,4-d]pyrimidin-4-yl)-2-thia-1,3,7-triazaspiro[4.5]decane 2,2-dioxide]
12 | < 2 nM | < 2 nM | < 2 nM | O=S1(=O)NCC2(CCCN(c3nc(OC[C@@]45CCCN4C[C@H](F)C5)nc4c3CCN(c3c5ccccc5cc5[nH]ncc35)C4)C2)N1 (stereo partly drawn) [Example 612, 7-(7-(1H-benzo[f]indazol-4-yl)-2-(((2R,7aS)-2-fluorotetrahydro-1H-pyrrolizin-7a(5H)-yl)methoxy)-5,6,7,8-tetrahydropyrido[3,4-d]pyrimidin-4-yl)-2-thia-1,3,7-triazaspiro[4.5]decane 2,2-dioxide]
13 | 42 nM | 23 nM | 23 nM | CCc1c(F)ccc2cc(O)cc(N3CCc4c(nc(N5CC(N)C5)nc4N4CCCC5(C4)NC(=O)NC5=O)C3)c12 (stereo not drawn) [Example 627, 7-(2-(3-aminoazetidin-1-yl)-7-(8-ethyl-7-fluoro-3-hydroxynaphthalen-1-yl)-5,6,7,8-tetrahydropyrido[3,4-d]pyrimidin-4-yl)-1,3,7-triazaspiro[4.5]decane-2,4-dione]
14 | 35 nM | 51 nM | 10 nM | CCc1c(F)ccc2cc(O)cc(N3CCc4c(nc(OC[C@@]56CCCN5C[C@H](F)C6)nc4N4CCCC5(C4)NC(=O)CC54COC4)C3)c12 (stereo partly drawn) [Example 629, 7-(7-(8-ethyl-7-fluoro-3-hydroxynaphthalen-1-yl)-2-(((2R,7aS)-2-fluorotetrahydro-1H-pyrrolizin-7a(5H)-yl)methoxy)-5,6,7,8-tetrahydropyrido[3,4-d]pyrimidin-4-yl)-2-oxa-7,11-diazadispiro[3.0.55.34]tridecan-12-one]
15 | 4 nM | 6 nM | 8 nM | CCc1c(F)ccc2cc(O)cc(N3CCc4c(nc(OC[C@@]56CCCN5C[C@H](F)C6)nc4N4CCCn5nc(CCO)cc5C4)C3)c12 [Example 630, 5-ethyl-6-fluoro-4-(2-(((2R,7aS)-2-fluorotetrahydro-1H-pyrrolizin-7a(5H)-yl)methoxy)-4-(2-(2-hydroxyethyl)-7,8-dihydro-4H-pyrazolo[1,5-a][1,4]diazepin-5(6H)-yl)-5,8-dihydropyrido[3,4-d]pyrimidin-7(6H)-yl)naphthalen-2-ol]
16 | 241 nM | 1280 nM | 357 nM | Cc1cc2[nH]nnc2c(N2CCc3c(nc(OCC45CCCN4CCC5)nc3N3CCCC4(CNS(=O)(=O)N4)C3)C2)c1C (stereo not drawn) [Example 639, 7-(7-(5,6-dimethyl-1H-benzo[d][1,2,3]triazol-4-yl)-2-((tetrahydro-1H-pyrrolizin-7a(5H)-yl)methoxy)-5,6,7,8-tetrahydropyrido[3,4-d]pyrimidin-4-yl)-2-thia-1,3,7-triazaspiro[4.5]decane 2,2-dioxide]
17 | 52 nM | 7 nM | 13 nM | CCc1c(F)ccc2cc(O)cc(N3CCc4c(nc(OCC5(CN(C)C)CC5)nc4N4CCCN(c5nccs5)CC4)C3)c12 [Example 645, 4-(2-((1-((dimethylamino)methyl)cyclopropyl)methoxy)-4-(4-(thiazol-2-yl)-1,4-diazepan-1-yl)-5,8-dihydropyrido[3,4-d]pyrimidin-7(6H)-yl)-5-ethyl-6-fluoronaphthalen-2-ol]
18 | 95 nM | 20 nM | 23 nM | CCc1c(F)ccc2cc(O)cc(N3CCc4c(nc(OCC5(CN(C)C)CC5)nc4N4CCCN(CC(F)(F)F)CC4)C3)c12 [Example 646, 4-(2-((1-((dimethylamino)methyl)cyclopropyl)methoxy)-4-(4-(2,2,2-trifluoroethyl)-1,4-diazepan-1-yl)-5,8-dihydropyrido[3,4-d]pyrimidin-7(6H)-yl)-5-ethyl-6-fluoronaphthalen-2-ol]
